{"source": "patent US6540999B1", "about": "“Immunomodulatory methods using Lewisx oligosacchardies” (President and Fellows of Harvard College, priority 1996, dated 2003)", "key": {"Human PBMCs": {"system": "Human PBMCs", "assay": "Proliferation of human PBMCs from allergic or cancer patients (3H-thymidine uptake)", "assay_type": "cell-based", "details": "3H-thymidine uptake at 90 hours; LPS 20 μg/ml, HSA and conjugates 100 μg/ml", "source_text": "Human PBMCs were obtained from: 1) an individual who was allergic to pollen; 2) an individual suffering from lung carcinoma and 3) an individual suffering from colon carcinoma."}, "Granuloma macrophages": {"system": "Granuloma macrophages", "assay_type": "cell-based, C57BL/6 mice"}, "IgE response": {"system": "IgE response", "assay": "Serum IgE titers after intranasal administration, HSA as antigen", "assay_type": "in vivo", "details": "mice, FIG. 4B"}}}
{"substance": "human serum albumin [HSA]", "values": [{"measurement": "CPM, COLON CARCINOMA", "setting": "Human PBMCs", "result": 141, "unit": "CPM"}, {"measurement": "CPM, LUNG CARCINOMA", "setting": "Human PBMCs", "result": 152, "unit": "CPM"}, {"measurement": "CPM, POLLEN ALLERGIC", "setting": "Human PBMCs", "result": 460, "unit": "CPM"}, {"measurement": "IL-10 LEVEL 24 HR", "setting": "Granuloma macrophages", "result": 1247, "unit": "pg/mL"}, {"measurement": "IL-10 LEVEL 48 HR", "setting": "Granuloma macrophages", "result": 1214, "unit": "pg/mL"}, {"measurement": "IL-10 LEVEL 72 HR", "setting": "Granuloma macrophages", "result": 1089, "unit": "pg/mL"}, {"measurement": "HSA-specific IgE production (in words)", "setting": "IgE response", "result": "virtually no specific IgE production"}]}
